{"sequences": {"note": "Chains of the proteins cited; added tags and fusions are not shown.", "UniProt P09936, whole entry": "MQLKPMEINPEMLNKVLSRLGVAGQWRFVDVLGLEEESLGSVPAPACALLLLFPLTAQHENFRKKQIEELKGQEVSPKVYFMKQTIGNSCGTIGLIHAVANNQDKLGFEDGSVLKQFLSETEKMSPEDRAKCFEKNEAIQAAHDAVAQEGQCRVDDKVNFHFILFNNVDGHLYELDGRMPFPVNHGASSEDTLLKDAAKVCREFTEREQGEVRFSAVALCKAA"}, "source": "PubChem BioAssay AID1645859", "about": "(Buhrlage Lab, Dana-Farber Cancer Institute and Novartis …, 2021)", "note": "The entries are a selection whose mix differs from that of the whole data set. Calls of active or inactive are those of the source. Cut-off read from the data, not from the text of the source: active = inhibition above about 30%; inactive = the rest."}
{"target": "Ubiquitin carboxyl-terminal hydrolase isozyme L1 (Homo sapiens) (UniProt P09936)", "assay": "inhibitors of human UCHL1 deubiquitinase (AID 1645859)", "settings": "purified UCHL1, Ub-rhodamine cleavage fluorescence; at 20 µM; stronger effect = higher value"}
{"smiles": "CN(C)c1ccc(C(=O)NCC2(N3CCCCC3)CCCCC2)cc1", "inhibition": "inactive: 2.38%"}
{"smiles": "N#Cc1ccc(C(=O)NCC2(N3CCCCC3)CCCCC2)cc1", "inhibition": "inactive: -2.04%"}
{"smiles": "O=C(NCC1(N2CCCCC2)CCCCC1)c1ccc2ncsc2c1", "inhibition": "inactive: -3.8%"}
{"smiles": "Cc1ccccc1C(=O)NCC1(N2CCOCC2)CCCCC1", "inhibition": "inactive: -1.06%"}
{"smiles": "Cc1cc(C(=O)NCC2(N3CCOCC3)CCCCC2)c2ccccc2n1", "inhibition": "inactive: -1.35%"}
{"smiles": "O=C(NCC1(N2CCOCC2)CCCCC1)c1ccccc1Cl", "inhibition": "inactive: -2.3%"}
{"smiles": "O=C(NCC1(N2CCCCC2)CCCCC1)c1ccc(F)cc1", "inhibition": "inactive: -8.99%"}
{"smiles": "CC1CN(CCc2ccccc2)CCC1=O", "note": "(stereo not drawn)", "inhibition": "inactive: 0.546%"}
